Drawing on patent US4607114A, “Novel platinum complexes” (Nippon Kayaku Kabushiki Kaisha, priority 1983, dated 1986), this text covers Solubility in water for 4 molecules.

Structures are written as SMILES.

Turning to `CC(C)(N)CN.[OH][Pt]([OH])([Cl])[Cl]` [compound 2, cis-Dichloro-trans-dihydroxy-1,2-diamino-2-methylpropane platinum], the Solubility in water was > 20 mg/mL. The same measure for `NCC1(N)CCCC1.[Cl][Pt][Cl]` [compound 18, cis-Dichloro-1-amino-1-aminomethylcyclopentane platinum]: > 3 mg/mL; for `NCC1(N)CCCC1.[OH][Pt]([OH])([Cl])[Cl]` [compound 19, cis-Dichloro-trans-dihydroxy-1-amino-1-aminomethylcyclopentane platinum]: > 10 mg/mL. The same measure for `CCC(C(=O)[O-])C(=O)[O-].NCC1(N)CCCC1.[Pt+2]` [compound 22, cis-2-Ethylmalonato-1-amino-1-aminomethylcyclopentane platinum]: > 50 mg/mL.
